Data: article PMC4007151 (Nature communications, 2013)

Sequences of proteins named here, by UniProt entry; tags and fusion partners are left off. A change or cut given only in a name is not applied to a line headed by its entry.
UniProt O43189: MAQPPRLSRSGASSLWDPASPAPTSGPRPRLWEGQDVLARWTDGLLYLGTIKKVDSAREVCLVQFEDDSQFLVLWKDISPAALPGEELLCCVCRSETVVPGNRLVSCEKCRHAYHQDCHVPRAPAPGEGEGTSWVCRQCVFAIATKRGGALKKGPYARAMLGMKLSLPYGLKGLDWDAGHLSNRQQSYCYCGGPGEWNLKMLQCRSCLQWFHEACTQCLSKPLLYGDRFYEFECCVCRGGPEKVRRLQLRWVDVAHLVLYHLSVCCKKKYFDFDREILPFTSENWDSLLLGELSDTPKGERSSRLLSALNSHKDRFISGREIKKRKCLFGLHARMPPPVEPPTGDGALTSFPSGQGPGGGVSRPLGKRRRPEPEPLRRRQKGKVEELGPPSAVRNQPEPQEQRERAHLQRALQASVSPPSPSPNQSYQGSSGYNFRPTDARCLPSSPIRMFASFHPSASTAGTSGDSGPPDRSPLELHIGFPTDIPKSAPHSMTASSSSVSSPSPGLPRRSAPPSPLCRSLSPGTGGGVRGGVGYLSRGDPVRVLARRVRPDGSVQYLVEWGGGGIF

Experiments:
[1] = target: GST-fusion PHF1 Tudor domain (wild type) (human) (UniProt O43189); assay: pull-down
[2] = target: PHF1 Tudor domain (wild type, GST tag cleaved) (human) (UniProt O43189); assay: NMR titration

Kd [1]: 1300 nM | average decrease in resonance intensity at a 1:1 molar ratio [2]: 80%
Substance: H3KC36me3-nucleosome core particle (complex)
